Earlier results, collected in paper PMC12481580 (Journal of Medicinal Chemistry, 2025).

Sequences of proteins named here, by UniProt entry; tags and fusion partners are left off.
UniProt P30989, whole entry: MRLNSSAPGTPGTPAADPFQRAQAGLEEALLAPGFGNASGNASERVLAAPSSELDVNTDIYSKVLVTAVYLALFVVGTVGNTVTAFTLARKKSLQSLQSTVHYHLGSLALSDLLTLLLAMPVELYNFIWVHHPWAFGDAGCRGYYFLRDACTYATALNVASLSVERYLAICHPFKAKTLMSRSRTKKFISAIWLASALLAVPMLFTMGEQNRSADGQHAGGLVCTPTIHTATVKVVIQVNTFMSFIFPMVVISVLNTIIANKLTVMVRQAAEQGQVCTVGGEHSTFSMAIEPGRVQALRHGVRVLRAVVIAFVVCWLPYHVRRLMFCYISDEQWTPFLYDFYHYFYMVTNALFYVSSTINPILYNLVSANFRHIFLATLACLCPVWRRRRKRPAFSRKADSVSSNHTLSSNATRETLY

Biological target: NTS1R (Homo sapiens, UniProt P30989)
Settings: read-out: IC50 (hNTS1R); ref Maes et al.; cited from earlier work

CC(C)C[C@H](NC(=O)[C@@H](NC(=O)[C@H](Cc1ccc(O)cc1)NC(=O)[C@@H]1CCCN1C(=O)[C@H](CCCNC(=N)N)NC(=O)[C@H](CCCNC(=N)N)NC(=O)CCCCNC(=O)c1ccccc1-c1c2ccc(=O)cc-2oc2cc(O)ccc12)C(C)(C)C)C(=O)O
IC50: 75 nM
